Experimental data taken from ChEMBL document CHEMBL4038344, “Novel Diarylurea Based Allosteric Modulators of the Cannabinoid CB1 Receptor: Evaluation of Importance of 6-Pyrrolidinylpyridinyl Substitution” (J Med Chem, 2017).

Target: Cannabinoid receptor 1 (Mus musculus) (UniProt P47746)
Assay: PAM antagonist activity at CB1 receptor in CD-1 mouse cerebellar membranes assessed as inhibition of CP55,940-induced [35S]GTPgammaS binding after 60 mins
Conditions: Cerebellum, Membrane

With O=C(Nc1ccc(Cl)cc1)Nc1cccc(-c2cccc(N3CCCC3)n2)c1 the inhibition was “Dose-dependent effect”.
